Laboratory results published in US20260132196A1 (Amgen, published 2026).

Target: T1, HUMAN CLDN-6 (UniProt P56747) (human, UniProt P56747 1-220)
T1 sequence: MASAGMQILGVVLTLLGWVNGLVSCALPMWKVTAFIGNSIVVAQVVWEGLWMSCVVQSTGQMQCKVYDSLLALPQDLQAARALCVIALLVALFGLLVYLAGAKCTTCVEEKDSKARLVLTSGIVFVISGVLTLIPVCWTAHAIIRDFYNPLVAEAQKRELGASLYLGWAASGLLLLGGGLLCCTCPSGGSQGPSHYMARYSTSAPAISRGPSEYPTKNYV
Assay: cell-based or functional assay

B1: A3S/HLE-BITE I2E (SEQ ID NO: 203) (bispecific antibody)
chain: [sequence of about 100 residues not given]GGGGSGGGGSGGGGSQVQLVQSGAEVKKPGASVKVSCKASGYTFTGYYMHWVRQAPGQCLEWMGWINPNSGETNYAQKFQGRVTMTRDTSISTAYMELSRLRSDDTAVYYCARDNLIVVAPVTRDYYYYGMDVWGQGTTVTVSSSGGGGSEVQLVESGGGLVQPGGSLKLSCAASGFTFNKYAINWVRQAPGKGLEWVARIRSKYNNYATYYADAVKDRFTISRDDSKNTVYLQMNNLKTEDTAVYYCARAGNFGSSYISYWAYWGQGTLVTVSSGGGGSGGGGSGGGGSQTVVTQEPSLTVSPGGTVTIT[sequence of about 80 residues not given]FGSGTKLTVLGGGG[sequence of human IgG1 Fc with R292C N297G V302C (EU numbers) not given]GGGGSGGGGSGGGGSGGGGSGGGGSGGGGS[sequence of human IgG1 Fc with R292C N297G V302C (EU numbers) not given]
TDCC EC50, OAW28 cells: 0.0653 nM
TDCC EC50, OVCAR-3 cells: 0.0281 nM
TDCC EC50, PA-1 cells: 0.0047 nM
